According to PubChem BioAssay AID651711 (Broad Institute, 2012):
Only a part is listed here, and it is no random draw. Active and inactive are the calls of the source.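 How the source made its calls: active means mean replicate inhibition above about 25%, with every replicate also reaching it (limit read from the data, passing the limit was not always enough); inconclusive means only one of those two criteria met; inactive means neither criterion met.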

Sequences of proteins named here, by UniProt entry; tags and fusion partners are left off.
UniProt Q15084, whole entry: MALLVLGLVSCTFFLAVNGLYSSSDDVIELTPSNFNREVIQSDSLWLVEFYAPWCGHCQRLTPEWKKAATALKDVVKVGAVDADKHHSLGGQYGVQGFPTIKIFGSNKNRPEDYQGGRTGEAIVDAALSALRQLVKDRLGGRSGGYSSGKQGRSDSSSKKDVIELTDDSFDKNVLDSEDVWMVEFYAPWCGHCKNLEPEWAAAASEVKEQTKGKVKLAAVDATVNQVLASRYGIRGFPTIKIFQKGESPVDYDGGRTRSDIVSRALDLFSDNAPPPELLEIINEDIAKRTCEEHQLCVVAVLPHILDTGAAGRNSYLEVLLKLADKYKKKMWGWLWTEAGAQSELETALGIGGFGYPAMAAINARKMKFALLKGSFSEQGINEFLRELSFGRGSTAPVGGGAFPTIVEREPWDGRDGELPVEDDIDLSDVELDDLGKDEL

What follows are molecules tested against Protein disulfide-isomerase A6 (Homo sapiens) (UniProt Q15084) (assay: ERp5 (PDIA6) reductase activity blockers – biochemical, turbidity, absorbance 650 nm, single point, primary screen (AID 651711)). Conditions: ERp5 insulin aggregation, 90 min, at 9.99 µM, hits give high values.
For `N#Cc1ccc(C(=O)NCC2(N3CCCCC3)CCCCC2)cc1`, the inhibition was inactive: 2.59%. With `CC(C)(C)OC(=O)N1CCC(N(C(=O)c2ccccc2)c2ccc(Cl)cc2)CC1` the inhibition was inactive: 0.492%. With `CN(C)C1(CNC(=O)c2cccc(C#N)c2)CCCCC1` the inhibition was inactive: -0.887%. For `C/C(N)=N\P(=O)(Oc1ccccc1)Oc1ccccc1`, the inhibition was inactive: 8.5%. With `Cc1cc(N(CCCl)CCCl)ccc1C=O` the inhibition was inactive: 6.45%. In the case of `CCCN1CCC(Nc2cc(OC)cc(OC)c2)CC1`, the inhibition is reported as inactive: 3.12%. For `O=c1[nH]c2ccccc2n1C1CCN(C(c2ccccc2)c2nnnn2C2CCCC2)CC1` (stereo not drawn), the inhibition was inactive: 1.95%. With `CC(C)(C)n1nnnc1C(c1cccc2ccccc12)N1CCC(n2c(=O)[nH]c3ccccc32)CC1` (stereo not drawn) the inhibition was inactive: -4.39%. For `CCCCn1nnnc1C(c1ccccc1)N1CCC(n2c(=O)[nH]c3ccccc32)CC1` (stereo not drawn), the inhibition was inactive: 1.77%. For `COc1cc(C(=O)NCC2(N3CCOCC3)CCCCC2)cc(OC)c1C`, the inhibition was inactive: 1.01%. In the case of `O=C(NCC1(N2CCOCC2)CCCCC1)c1cc(Br)ccc1Cl`, the inhibition is reported as inactive: 6.43%. With `O=c1[nH]c2ccccc2n1C1CCN(C(c2cccs2)c2nnnn2C2CCCCC2)CC1` (stereo not drawn) the inhibition was inactive: 9.33%. For `COc1ccc(C(=O)NCC2(N3CCOCC3)CCCCC2)cc1OC`, the inhibition was inactive: 0.193%. With `O=c1[nH]c2ccccc2n1C1CCN(C(c2ccnc3ccccc23)c2nnnn2C2CCCC2)CC1` (stereo not drawn) the inhibition was inactive: 2.8%. With `COc1cccc(C(c2nnnn2C(C)(C)C)N2CCC(n3c(=O)[nH]c4ccccc43)CC2)c1OC` (stereo not drawn) the inhibition was inactive: 9.18%. In the case of `CCOC(=O)N1CCC(Nc2ccc(C)cc2)CC1`, the inhibition is reported as inactive: 3.07%. For `O=c1[nH]c2ccccc2n1C1CCN(C(c2cccs2)c2nnnn2C2CCCC2)CC1` (stereo not drawn), the inhibition was inactive: 5.32%. `CCCCn1nnnc1C(c1cccc(OC)c1OC)N1CCC(n2c(=O)[nH]c3ccccc32)CC1` (stereo not drawn) was tested, and the inhibition was inactive: -5.52%. In the case of `CN1CCC(Nc2ccc(F)c(Cl)c2)CC1`, the inhibition is reported as inactive: 1.1%. For `CC(C)(C)OC(=O)N1CCC(Nc2ccccc2)CC1`, the inhibition was inactive: -7.03%. With `O=C(O)C1(Nc2ccccc2)CCN(Cc2ccccc2)CC1` the inhibition was inactive: 9.89%. In the case of `NN(c1ccccc1)C1CCN(CCc2ccccc2)CC1`, the inhibition is reported as inactive: -2.81%. In the case of `CCCOc1ccc(C(=O)NCC2(N(C)C)CCCCC2)cc1`, the inhibition is reported as inactive: -0.8%. For `O=c1[nH]c2ccccc2n1C1CCN(C(c2cc3ccccc3o2)c2nnnn2C2CCCC2)CC1` (stereo not drawn), the inhibition was inactive: 8.64%. In the case of `COc1cccc(C(c2nnnn2C2CCCC2)N2CCC(n3c(=O)[nH]c4ccccc43)CC2)c1OC` (stereo not drawn), the inhibition is reported as inactive: -3.62%. In the case of `COc1cc(OC)cc(C(=O)NCC2(N3CCOCC3)CCCCC2)c1`, the inhibition is reported as inactive: -7.91%. With `COc1cccc(C(=O)N(c2cc(C)cc(C)c2)C2CCN(C(=O)OC(C)(C)C)CC2)c1` the inhibition was inactive: -4.07%. In the case of `CN1CCC(Nc2ccc(Cl)cc2)CC1`, the inhibition is reported as inactive: 3.86%. `CC(=O)N(c1ccccc1)C1CCNCC1` was tested, and the inhibition was inactive: 2.88%. With `COc1cccc(C(c2nnnn2C2CCCCC2)N2CCC(n3c(=O)[nH]c4ccccc43)CC2)c1OC` (stereo not drawn) the inhibition was inactive: 3.42%. In the case of `CCC(c1nnnn1C1CCCCC1)N1CCC(n2c(=O)[nH]c3ccccc32)CC1` (stereo not drawn), the inhibition is reported as inactive: 3.92%. For `O=c1[nH]c2ccccc2n1C1CCN(C(c2ccnc3ccccc23)c2nnnn2C2CCCCC2)CC1` (stereo not drawn), the inhibition was inactive: 5.3%. For `COc1cc(OC)cc(C(=O)NCC2(N3CCCCC3)CCCCC2)c1`, the inhibition was inactive: -0.098%. With `Cc1ccc(C(=O)NCC2(N3CCCCC3)CCCCC2)o1` the inhibition was inactive: -1.54%. With `Fc1ccccc1NC1CCN(Cc2ccccc2)CC1` the inhibition was inactive: -1.48%. `Cc1ccc(NC2(C#N)CCN(Cc3ccccc3)CC2)cc1` was tested, and the inhibition was inactive: -1.32%. In the case of `Cc1ccccc1NC1(C#N)CCN(Cc2ccccc2)CC1`, the inhibition is reported as inactive: -8.06%. For `CC(C)(C)n1nnnc1C(c1ccnc2ccccc12)N1CCC(n2c(=O)[nH]c3ccccc32)CC1` (stereo not drawn), the inhibition was inactive: -3.39%. In the case of `COc1ccc(C(c2nnnn2C2CCCCC2)N2CCC(n3c(=O)[nH]c4ccccc43)CC2)cc1` (stereo not drawn), the inhibition is reported as inactive: 2.49%. For `O=C(NCC1(N2CCCCC2)CCCCC1)c1ccco1`, the inhibition was inactive: 3.12%. For `Cn1c(=O)[nH]cc(N(CCCl)CCCl)c1=O`, the inhibition was inactive: -11%. `CN(C)c1ccc(C(=O)NCC2(N3CCCCC3)CCCCC2)cc1` was tested, and the inhibition was inactive: -2.86%. For `CC(C)(C)n1nnnc1C(c1ccccc1)N1CCC(n2c(=O)[nH]c3ccccc32)CC1` (stereo not drawn), the inhibition was inactive: -1.54%. `O=C1CCN(Cc2ccccc2)CC1` was tested, and the inhibition was inactive: -1.02%. With `CCOc1ccc(C)cc1CN(CCCl)CCCl` the inhibition was inactive: 2.64%. `O=C(NCC1(N2CCCCC2)CCCCC1)c1ccc(F)cc1` was tested, and the inhibition was inactive: 1.91%. With `O=P1(N(CCCl)CCCl)SCCCS1` the inhibition was inactive: 2.46%. In the case of `CCCCn1nnnc1C(c1cc2ccccc2o1)N1CCC(n2c(=O)[nH]c3ccccc32)CC1` (stereo not drawn), the inhibition is reported as inactive: 3.04%. For `CCCCOc1ccc(C(=O)NCC2(N3CCOCC3)CCCCC2)cc1`, the inhibition was inactive: -2.52%. With `CCOC(=O)N1CCC(Nc2ccc(F)cc2)CC1` the inhibition was inactive: 1.89%. With `O=c1[nH]c2ccccc2n1C1CCN(C(c2ccccc2)c2nnnn2C2CCCCC2)CC1` (stereo not drawn) the inhibition was inactive: -0.55%. For `COc1cc(C(=O)NCC2(N(C)C)CCCCC2)ccc1OC(F)F`, the inhibition was inactive: 1.13%. For `CCOC(=O)N1CCC(Nc2cccc(C)c2)CC1`, the inhibition was inactive: -0.717%. `O=c1[nH]c2ccccc2n1C1CCN(C(c2cccc3ccccc23)c2nnnn2C2CCCC2)CC1` (stereo not drawn) was tested, and the inhibition was inactive: -1.62%. With `COc1ccc(C(=O)NCC2(N3CCCCC3)CCCCC2)cc1` the inhibition was inactive: 6.68%. `CCC(c1nnnn1C1CCCC1)N1CCC(n2c(=O)[nH]c3ccccc32)CC1` (stereo not drawn) was tested, and the inhibition was inactive: 6.27%. In the case of `CC(C)(C)OC(=O)N1CCC(N(C(=O)c2ccccc2)c2ccc(F)cc2)CC1`, the inhibition is reported as inactive: 1.15%. For `COc1ccc(C(=O)NCC2(N3CCCCC3)CCCCC2)c(OC)c1OC`, the inhibition was inactive: -1.65%. `O=C(NCC1(N2CCCCC2)CCCCC1)c1ccc(=O)[nH]c1` was tested, and the inhibition was inactive: -0.041%. For `CCCCn1nnnc1C(c1cccs1)N1CCC(n2c(=O)[nH]c3ccccc32)CC1` (stereo not drawn), the inhibition was inactive: 7.76%. `O=C(NCC1(N2CCCCC2)CCCCC1)c1cccs1` was tested, and the inhibition was inactive: 6.99%. With `CCCCn1nnnc1C(CC)N1CCC(n2c(=O)[nH]c3ccccc32)CC1` (stereo not drawn) the inhibition was inactive: -1.28%. In the case of `CSc1ccccc1C(=O)NCC1(N2CCCCC2)CCCCC1`, the inhibition is reported as inactive: -1.83%. `Cc1cccc(NC2(C#N)CCN(Cc3ccccc3)CC2)c1` was tested, and the inhibition was inactive: -4.67%. For `O=c1[nH]c2ccccc2n1C1CCN(C(c2ccccc2OC(F)(F)F)c2nnnn2C2CCCCC2)CC1` (stereo not drawn), the inhibition was inactive: 7.05%. In the case of `O=C(NCC1(N2CCCCC2)CCCCC1)c1ccc(Cl)nc1`, the inhibition is reported as inactive: 0.702%. With `Cc1cc(C)cc(N(C(=O)c2ccccc2)C2CCN(C(=O)OC(C)(C)C)CC2)c1` the inhibition was inactive: -2.36%. `O=C(OC1CN2CCC1CC2)C1c2ccccc2Oc2ccccc21` (stereo not drawn) was tested, and the inhibition was inactive: 3.93%. For `O=c1[nH]c2ccccc2n1C1CCN(C(c2cc3ccccc3o2)c2nnnn2C2CCCCC2)CC1` (stereo not drawn), the inhibition was inactive: 1.24%. `N#CC1(Nc2ccccc2)CCN(Cc2ccccc2)CC1` was tested, and the inhibition was inactive: -2.81%. For `O=C(NCC1(N2CCCCC2)CCCCC1)c1ccc(Cl)s1`, the inhibition was inactive: 4.87%. With `COc1ccc(Cl)cc1C(=O)NCC1(N2CCOCC2)CCCCC1` the inhibition was inactive: -0.113%. In the case of `CCOC(=O)N1CCC(Nc2ccc(OC)cc2)CC1`, the inhibition is reported as inactive: 0.195%. `CCCCn1nnnc1C(c1ccc(OC)cc1)N1CCC(n2c(=O)[nH]c3ccccc32)CC1` (stereo not drawn) was tested, and the inhibition was inactive: -3.64%. In the case of `CC(C)c1ccc(NC2CCN(C(=O)OC(C)(C)C)CC2)cc1`, the inhibition is reported as inactive: 2.68%. In the case of `COc1ccc(CN(CCCl)CCCl)cc1Cl`, the inhibition is reported as inactive: 2.08%. For `CN(C)c1cccc(C(=O)NCC2(N3CCCCC3)CCCCC2)c1`, the inhibition was inactive: 2.13%. `COc1cc(OC)c(C(=O)NCC2(N(C)C)CCCCC2)cc1OC` was tested, and the inhibition was inactive: -1.02%. `O=C(NCC1(N2CCOCC2)CCCCC1)c1cc(F)c(F)cc1Cl` was tested, and the inhibition was inactive: -18.3%. In the case of `CCC(c1nnnn1C(C)(C)C)N1CCC(n2c(=O)[nH]c3ccccc32)CC1` (stereo not drawn), the inhibition is reported as inactive: -0.864%. With `CCCCn1nnnc1C(c1ccnc2ccccc12)N1CCC(n2c(=O)[nH]c3ccccc32)CC1` (stereo not drawn) the inhibition was inactive: 0.05%. `O=C(NCC1(N2CCCCC2)CCCCC1)c1cncc(Br)c1` was tested, and the inhibition was inactive: 0.749%. With `CN1CCC(Nc2cccc(F)c2)CC1` the inhibition was inactive: -0.285%. `COc1ccc(C(c2nnnn2C2CCCC2)N2CCC(n3c(=O)[nH]c4ccccc43)CC2)cc1` (stereo not drawn) was tested, and the inhibition was inactive: -1.84%. With `Cc1ccc(C(=O)NCC2(N(C)C)CCCCC2)o1` the inhibition was inactive: 0.527%. `CCCOc1ccc(C(=O)NCC2(N(C)C)CCCCC2)cc1OC` was tested, and the inhibition was inactive: 6.81%. For `CC(C)(C)n1nnnc1C(c1ccccc1OC(F)(F)F)N1CCC(n2c(=O)[nH]c3ccccc32)CC1` (stereo not drawn), the inhibition was inactive: 0.466%. `O=C(NCC1(N2CCCCC2)CCCCC1)c1ccc(OC(F)F)cc1` was tested, and the inhibition was inactive: -1.54%. With `CCN1CCC(Nc2ccc(Cl)cc2)CC1` the inhibition was inactive: -0.975%. In the case of `O=c1[nH]c2ccccc2n1C1CCN(C(c2ccccc2OC(F)(F)F)c2nnnn2C2CCCC2)CC1` (stereo not drawn), the inhibition is reported as inactive: -2.62%. In the case of `CSc1ccc(C(=O)NCC2(N3CCOCC3)CCCCC2)cc1`, the inhibition is reported as inactive: -2.35%. In the case of `O=C(NCC1(N2CCCCC2)CCCCC1)c1cccc([N+](=O)[O-])c1`, the inhibition is reported as inactive: 3.77%. With `O=C(NCC1(N2CCCCC2)CCCCC1)c1cccc(C(F)(F)F)c1` the inhibition was inactive: -2.87%. With `COc1cc(C(=O)NCC2(N3CCCCC3)CCCCC2)ccc1OC(F)F` the inhibition was inactive: -10.3%. In the case of `CCCCn1nnnc1C(c1cccc2ccccc12)N1CCC(n2c(=O)[nH]c3ccccc32)CC1` (stereo not drawn), the inhibition is reported as inactive: -0.423%. For `CN1CCN(CCOC(=O)C(O)(c2ccccc2)c2ccccc2)CC1`, the inhibition was inactive: 14.2%. `CC(C)c1ccc(C(=O)NCC2(N3CCOCC3)CCCCC2)cc1` was tested, and the inhibition was inactive: -2.78%. In the case of `COc1ccc(NC2CCN(C(=O)OC(C)(C)C)CC2)cc1`, the inhibition is reported as inactive: -0.708%.
